This assay deals with PD-1/PD-L1 (Homo sapiens, UniProt Q9NZQ7). Briefly: PD-1/PD-L1 TR-FRET assay. It is filed as binding. Background: Time-resolved FRET reads energy transfer from a long-lived donor to a nearby acceptor.

The term IC50 denotes the concentration that inhibits the measured activity by half. Read a high IC50 as a need for much substance.

Regarding `CCCC[C@H]1C(=O)N(C)[C@@H](CCCC)C(=O)N[C@@H](CCCNC(=N)N)C(=O)N[C@H](C(=O)NCC(N)=O)CSCC(=O)N[C@@H](Cc2ccccc2)C(=O)N(C)[C@@H](C)C(=O)N[C@@H](CC(N)=O)C(=O)N2CCC[C@H]2C(=O)N[C@@H](Cc2cnc[nH]2)C(=O)N[C@@H](CC(C)C)C(=O)N[C@@H](CO)C(=O)N[C@@H](Cc2c[nH]c3ccccc23)C(=O)N[C@@H](CO)C(=O)N[C@@H](Cc2c[nH]c3ccccc23)C(=O)N1C` [Compound 1], the IC50 turned out to be 0.0462 µM.
